# Literature values in US20170340557A1.
# Only a part of the results on these compounds is given; other tests are left out.
# Conditions: oral administration
compound,measurement,value
CCC(=O)N(c1ccccc1)C1CCN(CCc2ccccc2)CC1,Share of orally administered fentanyl not absorbed (first pass effect),≥ 50%
